Literature values in patent US5872104A, “Combinations and methods for reducing antimicrobial resistance” (Oridigm Corporation, priority 1994, dated 1999).
Like-named read-outs stand apart in the source and are kept apart here.

What was measured:
[1] = mouse, in vivo; cited from earlier work
[2] = test system: internal m^6 A of late SV40 mRNA; details: cited from earlier work
sixteen bacteria = details: cited from earlier work
tumor = details: in vivo; cited from earlier work
[3] = test system: RNA methylation in human colon carcinoma; details: cited from earlier work
[4] = test system: 28S rRNA, 18S rRNA and tRNA; details: NPA 10 μM; c^3 -NPA 10 μM; c^3 -Ari 100 μM; cited from earlier work

| Compound | LD50 [1] | fold reduction of internal m^6 As ([2]; 2 mg/ml) | fold reduction of internal m^6 As ([2]; 5 mg/ml) | bacteria sensitive out of sixteen (sixteen bacteria; agar plates) | growth sensitivity in broth culture (sixteen bacteria; broth culture, concentrations as high as 4 mM) | antitumor activity (tumor) | RNA methylation [3] | RNA synthesis (transcription) [3] | methylation of 28S rRNA, 18S rRNA and tRNA [4] |
| --- | --- | --- | --- | --- | --- | --- | --- | --- | --- |
| NC1(C(=O)O)CCCC1 [cycloleucine, 1-aminocyclopentane-1-carboxylic acid] | 309 mg/kg | 10 fold | 100 fold |  |  |  |  |  |  |
| Nc1ncnc2c1ncn2[C@@H]1C=C(CO)[C@@H](O)[C@H]1O [NPA, neplanocin A] |  |  |  | only two were determined to be sensitive | None of the sixteen showed any growth sensitivity in broth culture | significant antitumor activity in vivo | inhibitor of RNA methylation | not of RNA synthesis (transcription) | inhibit the methylation of 28S rRNA, 18S rRNA and tRNA |
